Data reported in patent publication US9700603B2, “Use of antidotes to coagulation inhibitors indicated in the prevention or treatment of thromboembolic pathologies” (LABORATOIRE FRANCAIS DU FRACTIONNEMENT ET DES …, priority 2013, dated 2017).

Key:
Type in all cases: biochemical
[1] = test system: thrombin generation in normal plasma pool; test: Thrombin generation test (TGT Fluoroskan), extrinsic pathway, TF 1 pM / PL 4 μM
Method: The stock solution of rivaroxaban at 436 μg/mL is diluted in 5% DMSO in order to obtain intermediate concentrations which, added to the NPP (Normal Pool Plasma), give final concentrations of rivaroxaban in μg per mL of plasma.
FX or FXa are introduced into the plasma without an incubation step.
(§1) The thrombin generation test consists of activating coagulation ex vivo either using a mixture of tissue factor and phospholipids, or using cephalin and then measuring the concentration of thrombin generated over time.
The thrombin generation tests are carried out on 80 μl of a plasma pool optionally containing FX and/or Rivaroxaban in the presence either of 20 μl of PPP reagent (Stago) finally containing 5 pM of Tissue Factor (TF) and 4 μM of phospholipids (PL), or in the presence of 20 μL of cephalin (CK-Prest reconstituted with 5 mL of distilled H2O).
(§2) The reaction is started by the addition of 20 μL of Fluca-kit (substrate+CaCl2) which constitutes the start of the measurement of the appearance of thrombin. The appearance of fluorescence is measured on a fluorometer of the Fluoroskan Ascent type (ThermoLabsystems) at an excitation wavelength of 390 nm and emission wavelength of 460 nm. The thrombinograms (curves representing the intensity of fluorescence as a function of time) are then analyzed using the Thrombinoscope™ software which converts the fluorescence value to nM of thrombin by comparative calculation.

normal plasma pool = test: Prothrombin time (PT) with RecombiPlastin
[2] = test system: thrombin generation in normal plasma pool; test: Thrombin generation test (CAT), intrinsic pathway, cephalin alone
Method: as §1, §2
The reagents, the automated equipment and the experimental protocol are identical to those described in Example 1.
The thrombin generation tests are carried out on 80 μl of a normal plasma pool optionally containing FX and/or Rivaroxaban in the presence of 20 μl of cephalin (CK-Prest reconstituted with 5 mL of distilled H2O) and 20 μL fluca-kit (substrate+CaCl2).

[3] = 10 μg/mL of FX added to normal plasma
[4] = FX 25 μg/ml added to normal plasma
[5] = FX 100 μg/ml added to normal plasma
[6] = FX (HTI) 10 μg/mL final in PNP + rivaroxaban 0.5 μg/ml
[7] = FX (HTI) 25 μg/mL in PNP + rivaroxaban 0.5 μg/mL
[8] = FX (HTI) 100 μg/mL in PNP + rivaroxaban 0.5 μg/mL

In the case of “FX (HTI): commercial human factor X (HTI), stock at 6.8 mg/mL; inactive zymogen of factor Xa”, the “increase of height of the peak versus normal plasma” value [1, 3] was 7.3%, the “increase of total quantity of thrombin generated (ETP) versus normal plasma” value [1, 3] was 13% and the “correction of plasma overloaded with rivaroxaban” value ([1]; FX 10 μg/mL final, rivaroxaban 0.5 μg/mL, 1 pM TF) was “does not correct”. The “increase of height of the peak versus normal plasma” value [1, 4] was 9.5%, the “increase of total quantity of thrombin generated versus normal plasma” value [1, 4] was 13% and the “increase of height of the peak versus normal plasma” value [1, 5] was 37%. For the same substance, the “increase of total quantity of thrombin generated versus normal plasma” value [1, 5] was 16%, the “ETP (endogenous thrombin potential)” value ([1]; FX (HTI) 10 μg/mL final in PNP) was 1244 nM·min and the “LT (lag time)” value ([1]; FX (HTI) 10 μg/mL final in PNP) was 6.33 min. For the same substance, the Peak ([1]; FX (HTI) 10 μg/mL final in PNP) was 136.38 nM, the “ST (start time)” value ([1]; FX (HTI) 10 μg/mL final in PNP) was 35.5 min and the “TTP (time to peak)” value ([1]; FX (HTI) 10 μg/mL final in PNP) was 11.17 min. The “mVRI (mean velocity rate index)” value ([1]; FX (HTI) 10 μg/mL final in PNP) was 28.18 nM/min, the “LT (lag time)” value [1, 6] was 25.83 min and the Peak [1, 6] was 8 nM. The “TTP (time to peak)” value [1, 6] was 53.67 min, the “mVRI (mean velocity rate index)” value [1, 6] was 0.29 nM/min and the “ETP (endogenous thrombin potential)” value ([1]; FX (HTI) 25 μg/mL in PNP) was 1285 nM·min. The “LT (lag time)” value ([1]; FX (HTI) 25 μg/mL in PNP) was 5.55 min, the Peak ([1]; FX (HTI) 25 μg/mL in PNP) was 118.82 nM and the “ST (start time)” value ([1]; FX (HTI) 25 μg/mL in PNP) was 36.5 min. The “TTP (time to peak)” value ([1]; FX (HTI) 25 μg/mL in PNP) was 11.06 min, the “mVRI (mean velocity rate index)” value ([1]; FX (HTI) 25 μg/mL in PNP) was 21.56 nM/min and the “LT (lag time)” value [1, 7] was 29.09 min. The Peak [1, 7] was 11.22 nM, the “TTP (time to peak)” value [1, 7] was 58.64 min and the “mVRI (mean velocity rate index)” value [1, 7] was 0.38 nM/min. The “ETP (endogenous thrombin potential)” value ([1]; FX (HTI) 100 μg/mL in PNP) was 1327 nM·min, the “LT (lag time)” value ([1]; FX (HTI) 100 μg/mL in PNP) was 5.88 min and the Peak ([1]; FX (HTI) 100 μg/mL in PNP) was 149.34 nM. The “ST (start time)” value ([1]; FX (HTI) 100 μg/mL in PNP) was 35.5 min, the “TTP (time to peak)” value ([1]; FX (HTI) 100 μg/mL in PNP) was 10.22 min and the “mVRI (mean velocity rate index)” value ([1]; FX (HTI) 100 μg/mL in PNP) was 34.41 nM/min. The “LT (lag time)” value [1, 8] was 58.31 min, the Peak [1, 8] was 1.77 nM and the “TTP (time to peak)” value [1, 8] was 62.15 min. For the same substance, the “mVRI (mean velocity rate index)” value [1, 8] was 0.46 nM/min, the “correction of thrombin generation of plasma overloaded with Rivaroxaban” value ([1]; FX up to 100 μg/ml (10 U/ml), Rivaroxaban 0.5 μg/mL) was “does not correct” and the “PT (RecombiPlastin ISI: 1.0)” value (normal plasma pool; FX (HTI) 10 μg/mL final in PNP) was 11.1 s. The “PT (RecombiPlastin ISI: 1.0)” value (normal plasma pool; [6]) was 29.3 s, the “increase of total quantity of thrombin generated versus normal plasma” value ([2]; 10 μg/mL of FX added to normal plasma, cephalin) was 19% and the “correction of plasma overloaded with rivaroxaban” value ([2]; FX 10 μg/mL final, Rivaroxaban 0.35 μg/mL, intrinsic pathway) was “does not correct”. For the same substance, the “ETP (endogenous thrombin potential)” value ([2]; FX (HTI) 10 μg/mL final in PNP) was 1441 nM·min, the “LT (lag time)” value ([2]; FX (HTI) 10 μg/mL final in PNP) was 17 min and the Peak ([2]; FX (HTI) 10 μg/mL final in PNP) was 225.75 nM. The “ST (start time)” value ([2]; FX (HTI) 10 μg/mL final in PNP) was 35.5 min, the “TTP (time to peak)” value ([2]; FX (HTI) 10 μg/mL final in PNP) was 20.17 min and the “mVRI (mean velocity rate index)” value ([2]; FX (HTI) 10 μg/mL final in PNP) was 71.21 nM/min.
